# Assay results as given in US4956379A, “Pyrazole carboxylic acids and esters and inhibition of blood platelet aggregation therewith” (Bristol-Myers Squibb Company, priority 1990, dated 1990).
# Test system: human platelet aggregation (ADP-induced, platelet rich plasma)
# Assay: cells
# Conditions: read-out: Inhibition of Human Platelet Aggregation, IC50 Vs ADP
row,SMILES,IC50 [µg/mL]
1,"COC(=O)COc1cccc(CCn2cc(-c3ccccc3)c(-c3ccccc3)n2)c1 [1(a), Methyl [3-[2-(3,4-diphenyl-1H-pyrazol-1-yl)ethyl]phenoxy]acetate]",0.21
2,"COC(=O)COc1cccc(CCn2ncc(-c3ccccc3)c2-c2ccccc2)c1 [1(b), Methyl [3-[2-(4,5-diphenyl-1H-pyrazol-1-yl)ethyl]phenoxy]acetate]",0.2
3,"O=C(O)COc1cccc(CCn2cc(-c3ccccc3)c(-c3ccccc3)n2)c1 [Example 2, [3-[2-(3,4-Diphenyl-1H-pyrazol-1-yl)ethyl]phenoxy]acetic Acid]",0.35
4,"O=C(O)COc1cccc(CCn2ncc(-c3ccccc3)c2-c2ccccc2)c1 [Example 3, [3-[2-(4,5-Diphenyl-1H-pyrazol-1-yl)ethyl]phenoxy]acetic Acid]",0.3
5,"COC(=O)COc1cccc(CCc2cc(-c3ccccc3)n(-c3ccccc3)n2)c1 [Example 4, Methyl [3-[2-(1,5-diphenyl-1H-pyrazol-3-yl)ethyl]phenoxy]acetate]",0.33
6,"O=C(O)COc1cccc(CCc2cc(-c3ccccc3)n(-c3ccccc3)n2)c1 [Example 5, [3-[2-(1,5-Diphenyl-1H-pyrazol-3-yl)ethyl]phenoxy]acetic Acid]",0.67
